Test results from PubChem BioAssay AID1777 (Sanford-Burnham Center for Chemical Genomics, 2009).
The list shows a part of the results, in another mix than the full data. Results with a measured potency or affinity are listed apart. Some structures show a salt or complex split into parts, the way the source records it. Active and inactive are the calls of the source. Rule as the data show it: active = activation above about 50% (passing the limit was not always enough); inactive = the rest.

Protein sequences, listed by entry. Tags and fused reporters are not part of them.
UniProt P41145, whole entry: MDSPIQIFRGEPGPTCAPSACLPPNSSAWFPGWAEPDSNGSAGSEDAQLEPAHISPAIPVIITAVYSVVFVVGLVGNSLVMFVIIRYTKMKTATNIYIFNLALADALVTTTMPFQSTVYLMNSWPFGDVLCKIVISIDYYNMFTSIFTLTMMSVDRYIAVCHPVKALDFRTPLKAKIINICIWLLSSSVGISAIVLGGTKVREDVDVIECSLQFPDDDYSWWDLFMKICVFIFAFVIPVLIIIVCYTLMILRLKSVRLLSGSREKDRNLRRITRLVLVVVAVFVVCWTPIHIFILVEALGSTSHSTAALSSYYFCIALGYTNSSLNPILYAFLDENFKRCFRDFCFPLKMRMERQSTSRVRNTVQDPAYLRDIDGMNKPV

The compounds below were run against Kappa-type opioid receptor (Homo sapiens) (UniProt P41145) (assay: KOR agonists, beta-arrestin recruitment, primary screen, cell-based, luminescence, uHTS (AID 1777)). Settings: at 10 µM, stronger effect = higher value.

Compound	activation
COc1ccc2c(c1O)-c1c(O)c(OC)cc3c1[C@H](C2)[N+](C)(C)CC3.O=[N+]([O-])c1cc([N+](=O)[O-])c([O-])c([N+](=O)[O-])c1[O-]	inactive: 4.7%
O=C(OCCN1CCN(CCOCc2ccccc2)CC1)C(O)(c1ccccc1)c1ccccc1	inactive: 9.9%
O=C(OC1CN2CCC1CC2)c1ccc([N+](=O)[O-])cc1 (configuration not stated)	inactive: 3.9%
CC(C)c1ccc(OP(C)(=O)Nc2ccc(SC(F)(F)F)cc2)cc1 (configuration not stated)	inactive: 1.1%
CP(=O)(Nc1ccccc1F)Oc1ccccc1 (configuration not stated)	inactive: 8%
O=[N+]([O-])c1cc([N+](=O)[O-])c(OC2CCCCC2O)c([N+](=O)[O-])c1 (configuration not stated)	inactive: -3.8%
CP(=O)(Nc1ccccc1)Oc1ccc(F)cc1 (configuration not stated)	inactive: 5.2%
CCN(CC)CCCOC(=O)C(O)(c1ccccc1)C1CCCCC1 (configuration not stated)	inactive: -7.5%
COc1ccc(OP(C)(=O)Nc2ccc(SC(F)(F)F)cc2)cc1 (configuration not stated)	inactive: 6.3%
CCOC(=O)c1ccc(NP(C)(=O)Oc2ccc(F)cc2)cc1 (configuration not stated)	inactive: 0.8%
Cc1cc(-c2cccc3ccccc23)c(C)cn1.O=[N+]([O-])c1cc([N+](=O)[O-])c(O)c([N+](=O)[O-])c1	inactive: 4.8%
O=[N+]([O-])c1cc([N+](=O)[O-])c(NCC2CCS(=O)(=O)C2)c([N+](=O)[O-])c1 (configuration not stated)	inactive: -7.4%
O=[N+]([O-])c1ccc(OP2(=O)COCCO2)cc1 (configuration not stated)	inactive: 2.7%
COc1ccc(NP(C)(=O)Oc2ccccc2OC)cc1 (configuration not stated)	inactive: 0.4%
CN(C)CCOC(=O)C(O)(c1ccccc1)C1CCCCC1 (configuration not stated)	inactive: 1.1%
CN(C)C1(CNC(=O)c2ccc(Cl)c(S(N)(=O)=O)c2)CCCCC1	inactive: 0.1%
COc1ccc(OP(C)(=O)Nc2cccc(Br)c2)cc1 (configuration not stated)	inactive: 0.7%
Cc1ccccc1NP(C)(=O)Nc1ccccc1C	inactive: -0.9%
CP(=O)(Nc1ccc2c(c1)OCCO2)Oc1ccccc1 (configuration not stated)	inactive: -5.8%
CCOP(C)(=S)SCC(=O)NC(C)(CC)C(=O)O (configuration not stated)	inactive: -2.9%
CP(=O)(Nc1ccc(SC(F)(F)F)cc1)Oc1ccc(F)cc1 (configuration not stated)	inactive: 4%
CCCCN1CCC(C#N)(Nc2ccccc2)CC1	inactive: 9.2%

Compound	activation
CN(C)C(=O)c1c([N+](=O)[O-])cc([N+](=O)[O-])cc1[N+](=O)[O-]	inactive: 0.8%
CP(=O)(Nc1ccc(Cl)cc1)Oc1ccc(F)cc1 (configuration not stated)	inactive: -0.2%
COc1ccccc1OP(C)(=O)Nc1ccccc1Br (configuration not stated)	inactive: -6.3%
CP(=O)(Oc1ccccc1)N1CCOC1=O (configuration not stated)	inactive: 5.1%
CCc1ccc(OP(C)(=O)Nc2cccnc2)cc1 (configuration not stated)	inactive: 1.7%
COc1ccccc1OP(C)(=O)Nc1c(C)n(C)n(-c2ccccc2)c1=O (configuration not stated)	inactive: -2.8%
O=C(OCCCN1CCCC1)C(O)(c1ccccc1)C1CCCCC1 (configuration not stated)	inactive: 1.4%
CCN(CC)CC(O)COC(=O)C(O)(c1ccccc1)C1CCCCC1 (configuration not stated)	inactive: -2%
COc1ccc(OP(C)(=O)Nc2ccc(Br)cc2)cc1 (configuration not stated)	inactive: 0%
CP(=O)(OC12CC3CC(CC(C3)C1)C2)OC12CC3CC(CC(C3)C1)C2	inactive: -2%
CCOC(=O)c1ccc(NP(C)(=O)Oc2ccc(Cl)cc2)cc1 (configuration not stated)	inactive: 1.5%
CP(=O)(Nc1ccc(Cl)cc1Cl)Oc1ccccc1 (configuration not stated)	inactive: -3.5%
CP(=O)(OCCOc1ccccc1)OCCOc1ccccc1	inactive: -2.8%
Cc1nc2ccc3ccccc3c2o1.O=[N+]([O-])c1cc([N+](=O)[O-])c(O)c([N+](=O)[O-])c1	inactive: 9.9%
COc1ccc(OP(C)(=O)Nc2ccccc2Br)cc1 (configuration not stated)	inactive: -0.4%
COc1ccccc1OP(C)(=O)Nc1ccc(C)c(C)c1 (configuration not stated)	inactive: -3.1%
CCc1ccc(OP(C)(=O)O)cc1	inactive: 2.1%
CP(=O)(Nc1ccccn1)Oc1ccccc1 (configuration not stated)	inactive: -3.9%
COc1ccccc1OP(C)(=O)Nc1ccc(C)cc1C (configuration not stated)	inactive: 2.3%
Cc1c(NP(C)(=O)Oc2ccc(C(C)C)cc2)c(=O)n(-c2ccccc2)n1C (configuration not stated)	inactive: 6.5%
O=[N+]([O-])c1cc([N+](=O)[O-])c(Nc2ccccn2)c([N+](=O)[O-])c1	inactive: -7.8%
CN(C)CCOC(=O)C(O)(c1ccccc1)C1CCCC1 (configuration not stated)	inactive: 9.6%

Compound	activation
COc1ccc(OP(C)(=O)Nc2ccccn2)cc1 (configuration not stated)	inactive: 4%
COc1ccccc1OP(C)(=O)Nc1ccc(Br)cc1 (configuration not stated)	inactive: 0.5%
CCN(CC)CCn1c(NCc2ccc(OC)cc2)nc2ccccc21	inactive: -0.9%
CCN(CC)CCCOC(=O)C(O)(c1ccccc1)c1ccccc1	inactive: -1.6%
COc1ccc(OP(C)(=O)Nc2cccc(F)c2)cc1 (configuration not stated)	inactive: -3%
Cc1cc(C)cc(OP(C)(N)=O)c1 (configuration not stated)	inactive: -2.3%
CCOC(=O)c1ccc(NP(C)(=O)Oc2ccccc2)cc1 (configuration not stated)	inactive: 3.6%
COc1ccccc1OP(C)(=O)Nc1ccc(C)cc1 (configuration not stated)	inactive: 4.5%
Cc1ccc(NP(C)(=O)Oc2ccccc2)c(C)c1 (configuration not stated)	inactive: -3.9%
CC(C)(C)c1ccc(OP(C)(=O)Nc2ccc(SC(F)(F)F)cc2)cc1 (configuration not stated)	inactive: 1%
Cc1cccc(C)c1OP(C)(N)=O (configuration not stated)	inactive: -2.1%
O=[N+]([O-])c1ccc2c(c1)C=Nc1ccccc1O2	inactive: 1.8%
COc1ccccc1OP(C)(=O)Nc1ccccc1 (configuration not stated)	inactive: -4.2%
CP(=O)(Nc1ccccc1Br)Oc1ccccc1 (configuration not stated)	inactive: 4.2%
CP(=S)(Nn1cnnc1)Oc1ccccc1 (configuration not stated)	inactive: -1.6%
CCCCOc1ccc(C(=O)NCC2(N3CCCCC3)CCCCC2)cc1OC	inactive: -3.6%
CP(=O)(Nc1ccccn1)Oc1ccc(Cl)cc1 (configuration not stated)	inactive: 1.9%
CCOP(C)(=S)SCC(=O)NC(C)C(=O)O (configuration not stated)	inactive: -3.2%
CCOC(=O)c1ccc(NP(C)(=O)Oc2ccc(OC)cc2)cc1 (configuration not stated)	inactive: -1.4%
CP(=O)(NC(=O)Nc1ccccc1)Oc1ccccc1 (configuration not stated)	inactive: 4.3%
CCc1ccc(OP(C)(=O)N2CCN(c3ccc([N+](=O)[O-])cc3)CC2)cc1 (configuration not stated)	inactive: -1.7%
Cc1cc(C)cc(OP(C)(=O)Nc2ccc(SC(F)(F)F)cc2)c1 (configuration not stated)	inactive: -0.4%

Compound	activation
Cc1cccc(C)c1OP(C)(=O)Nc1ccc(SC(F)(F)F)cc1 (configuration not stated)	inactive: 0.4%
CP(=O)(Nc1ccc(SC(F)(F)F)cc1)Oc1ccc(Cl)cc1 (configuration not stated)	inactive: 1.8%
CP(=O)(Oc1ccccc1)OC(c1ccccc1)C(F)(F)F (configuration not stated)	inactive: -10.1%
Cc1nc2ccc3ccccc3c2s1.O=[N+]([O-])c1cc([N+](=O)[O-])c(O)c([N+](=O)[O-])c1	inactive: -1.3%
O=[N+]([O-])c1cc([N+](=O)[O-])c(-n2nnc3ccccc32)c([N+](=O)[O-])c1	inactive: -7.9%
CCCOc1ccc(NP(C)(=O)Oc2ccc(Cl)cc2)cc1 (configuration not stated)	inactive: -5.5%
CP(=O)(Nc1ccc(SC(F)(F)F)cc1)Oc1ccccc1 (configuration not stated)	inactive: 0.6%
COc1ccccc1OP(C)(=O)Nc1c(C)cccc1C (configuration not stated)	inactive: -0.1%
CN1CCCCC1COC(=O)C1(O)c2ccccc2CCc2ccccc21 (configuration not stated)	inactive: -0.9%
CN(C)C1(CNC(=O)c2ccc(S(C)(=O)=O)cc2)CCCCC1	inactive: -1.4%
O=[N+]([O-])c1cc([N+](=O)[O-])c(Nc2nnnn2CCO)c([N+](=O)[O-])c1	inactive: 0.8%
CCOC(=O)C(CC)C1=NC(C)(C)Cc2ccccc21.O=[N+]([O-])c1cc([N+](=O)[O-])c(O)c([N+](=O)[O-])c1 (configuration not stated)	inactive: -4.3%
CC1=NCCc2c1[nH]c1ccccc21.O=[N+]([O-])c1cc([N+](=O)[O-])c(O)c([N+](=O)[O-])c1	inactive: -0.2%
O=C(O)c1cccc(Nc2c([N+](=O)[O-])cc([N+](=O)[O-])cc2[N+](=O)[O-])c1	inactive: -0.6%
Cc1cc(C)cc(OP(C)(=O)Nc2ccccn2)c1 (configuration not stated)	inactive: -3.8%
CP(=O)(Nc1cccc(Br)c1)Oc1ccccc1 (configuration not stated)	inactive: 3%
Cc1ccc(C)c(NP(C)(=O)Oc2ccccc2)c1 (configuration not stated)	inactive: 3.8%
Cc1cc(C)cc(OP(C)(=O)Nc2ccc(C)cc2C)c1 (configuration not stated)	inactive: 10.1%
CCOC(=O)c1ccc(NP(C)(=O)Oc2cc(C)cc(C)c2)cc1 (configuration not stated)	inactive: 3%
COc1cc(C(=O)NCC2(N3CCOCC3)CCCCC2)cc(Cl)c1OC(C)C	inactive: -0.1%
COc1ccccc1OP(C)(=O)Nc1cccc(Br)c1 (configuration not stated)	inactive: -3.5%
